2-N halo-4-methylsulfonyl-butyric acid
stability in the organic solvent at room temperature (organic solvent extract, room temperature (22-28 C), for at least a month): stable | stability of lyophilized product upon exposure to water or air (white lyocake from aqueous reaction, flash frozen at -80 C, lyophilized, sealed under inert gas, then exposed to water or air): immediately underwent oxidative degradation

Source: US7851650B2, “Compounds for treating inflammation and pain” (Olatec Industries LLC, priority 2009, dated 2010)
